Biological target: Interleukin-1 receptor-associated kinase 4 (Homo sapiens, UniProt Q9NWZ3)
Assay: Inhibition Assay: The assays were performed in U-bottom 384-well plates. […] The reaction was initiated by the combination of IRAK4 with substrates and test compounds. The reaction was incubated at room temperature for 60 min. and terminated by adding 45 μL of 35 mM EDTA to each sample. The reaction mixture was analyzed on the Caliper LABCHIP® 3000 (Caliper, Hopkinton, Mass.) by electrophoretic separation of the fluorescent substrate and phosphorylated product.

Protein sequences, listed by entry. Tags and fused reporters are not part of them.
UniProt Q9NWZ3, whole entry: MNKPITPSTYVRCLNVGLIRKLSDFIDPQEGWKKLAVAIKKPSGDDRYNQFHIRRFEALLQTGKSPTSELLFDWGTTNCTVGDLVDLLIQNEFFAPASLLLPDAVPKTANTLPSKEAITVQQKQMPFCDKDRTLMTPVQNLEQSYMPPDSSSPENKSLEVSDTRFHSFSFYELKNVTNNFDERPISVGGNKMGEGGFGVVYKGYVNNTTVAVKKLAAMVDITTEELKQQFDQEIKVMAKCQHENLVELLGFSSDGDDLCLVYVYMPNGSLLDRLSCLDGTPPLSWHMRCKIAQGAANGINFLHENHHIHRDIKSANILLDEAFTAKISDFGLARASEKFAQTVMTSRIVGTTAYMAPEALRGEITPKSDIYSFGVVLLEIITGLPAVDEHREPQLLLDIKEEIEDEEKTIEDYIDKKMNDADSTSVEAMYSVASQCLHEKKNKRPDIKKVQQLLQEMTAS

IC50 [nM]	Compound
5.9	CC(C)(O)[C@H](F)CNC(=O)c1cnc(Nc2ccc3nonc3c2)cc1NC1CC1
9.7	CCNc1cc(Nc2ccn3nccc3n2)ncc1C(=O)NC[C@@H](F)C(C)(C)O

Reference: ChEMBL document CHEMBL5725441, “Bicyclic heterocycle substituted pyridyl compounds useful as kinase modulators” (2017)
